Reference: ChEMBL document CHEMBL5723035, “Affinity Biochemical Literature for EUbOPEN Chemogenomic Library” (2024)
pIC50, pKi: −log10 of the molar value. Blank lines part the entries; values can stand above or below the compound they belong to.

Protein sequences, listed by entry. Tags and fused reporters are not part of them.
UniProt Q15910, whole entry: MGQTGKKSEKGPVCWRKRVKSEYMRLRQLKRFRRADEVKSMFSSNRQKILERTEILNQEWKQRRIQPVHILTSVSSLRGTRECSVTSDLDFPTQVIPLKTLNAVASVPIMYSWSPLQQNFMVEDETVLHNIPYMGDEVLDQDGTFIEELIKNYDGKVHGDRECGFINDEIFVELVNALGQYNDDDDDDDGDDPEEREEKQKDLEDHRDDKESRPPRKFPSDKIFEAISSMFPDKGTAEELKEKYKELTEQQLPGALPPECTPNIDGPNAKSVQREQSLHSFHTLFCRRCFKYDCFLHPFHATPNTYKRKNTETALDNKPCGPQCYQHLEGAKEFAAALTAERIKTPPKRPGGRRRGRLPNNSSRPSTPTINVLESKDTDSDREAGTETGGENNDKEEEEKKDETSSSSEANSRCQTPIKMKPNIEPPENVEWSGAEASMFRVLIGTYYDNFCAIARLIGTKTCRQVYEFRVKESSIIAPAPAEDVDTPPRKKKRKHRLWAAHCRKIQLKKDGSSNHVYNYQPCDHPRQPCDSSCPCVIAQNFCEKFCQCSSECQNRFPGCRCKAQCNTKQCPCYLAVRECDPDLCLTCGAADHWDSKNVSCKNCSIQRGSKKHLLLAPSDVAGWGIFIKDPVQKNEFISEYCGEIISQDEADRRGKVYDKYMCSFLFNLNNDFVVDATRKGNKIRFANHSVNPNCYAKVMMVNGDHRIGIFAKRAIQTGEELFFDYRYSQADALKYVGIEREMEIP
UniProt P31645, whole entry: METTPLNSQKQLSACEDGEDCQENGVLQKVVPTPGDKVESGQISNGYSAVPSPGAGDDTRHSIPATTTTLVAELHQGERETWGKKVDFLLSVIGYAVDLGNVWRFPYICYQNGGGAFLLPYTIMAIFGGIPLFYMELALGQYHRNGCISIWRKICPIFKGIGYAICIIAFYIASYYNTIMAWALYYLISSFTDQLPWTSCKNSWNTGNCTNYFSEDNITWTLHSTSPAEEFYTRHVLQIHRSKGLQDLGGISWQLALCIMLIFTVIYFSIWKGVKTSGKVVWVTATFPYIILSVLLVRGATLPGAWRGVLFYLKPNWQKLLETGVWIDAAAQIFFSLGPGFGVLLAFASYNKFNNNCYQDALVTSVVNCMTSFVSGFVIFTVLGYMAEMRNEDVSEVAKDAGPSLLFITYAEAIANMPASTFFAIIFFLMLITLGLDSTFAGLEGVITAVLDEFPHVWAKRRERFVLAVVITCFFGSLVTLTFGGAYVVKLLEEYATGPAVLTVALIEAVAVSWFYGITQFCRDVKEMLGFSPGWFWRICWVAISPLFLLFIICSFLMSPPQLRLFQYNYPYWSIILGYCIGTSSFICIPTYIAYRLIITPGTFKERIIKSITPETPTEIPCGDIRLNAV

Columns and labels:
[1] = target: T1, Histone-lysine N-methyltransferase EZH2 (Homo sapiens, UniProt Q15910); assay: Affinity Biochemical interaction: (ELISA-based protein substrate methylation assay) EUB0002228a EZH2; assay type: functional
[2] = target: T1, Histone-lysine N-methyltransferase EZH2
Caspase-6 [3] = target: T2, Caspase-6 (Homo sapiens, UniProt P55212)
T2 sequence (P55212 whole entry): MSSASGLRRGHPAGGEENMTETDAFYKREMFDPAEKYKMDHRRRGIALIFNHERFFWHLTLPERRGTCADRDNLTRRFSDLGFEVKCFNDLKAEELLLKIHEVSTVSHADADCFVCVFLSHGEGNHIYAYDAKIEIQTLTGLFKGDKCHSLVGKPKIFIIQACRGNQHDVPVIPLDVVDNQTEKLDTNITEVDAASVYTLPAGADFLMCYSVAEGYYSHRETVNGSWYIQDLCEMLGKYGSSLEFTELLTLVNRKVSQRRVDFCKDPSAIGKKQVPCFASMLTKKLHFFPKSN

Caspase-6 [4] = target: T2, Caspase-6; remark: listed apart in the source
[5] = target: Sodium-dependent serotonin transporter (Homo sapiens, UniProt P31645)

pIC50 [1]: 8.22 | pKi [2]: > 8.52
SMILES: CCN(c1cc(C#CCN2CCOCC2)cc(C(=O)NCc2c(C)cc(C)[nH]c2=O)c1C)[C@H]1CC[C@H](N(C)CCOC)CC1

pIC50 (Caspase-6 [3]): 7.79 | pIC50 (Caspase-6 [4]): 8.05
SMILES: CC[C@H](C)[C@H](NC(=O)[C@H](CCC(=O)O)NC(=O)[C@@H](NC(C)=O)C(C)C)C(=O)N[C@H](C=O)CC(=O)O

SMILES: CN(C)CC(c1ccc(O)cc1)C1(O)CCCCC1 (stereo not given)
pKi [5]: 7.40
